Among the data in PubChem BioAssay AID588493 (Sanford-Burnham Center for Chemical Genomics, 2011) are inhibition values, retold here.

Chains of the proteins cited; added tags and fusions are not shown.
UniProt O00487, whole entry: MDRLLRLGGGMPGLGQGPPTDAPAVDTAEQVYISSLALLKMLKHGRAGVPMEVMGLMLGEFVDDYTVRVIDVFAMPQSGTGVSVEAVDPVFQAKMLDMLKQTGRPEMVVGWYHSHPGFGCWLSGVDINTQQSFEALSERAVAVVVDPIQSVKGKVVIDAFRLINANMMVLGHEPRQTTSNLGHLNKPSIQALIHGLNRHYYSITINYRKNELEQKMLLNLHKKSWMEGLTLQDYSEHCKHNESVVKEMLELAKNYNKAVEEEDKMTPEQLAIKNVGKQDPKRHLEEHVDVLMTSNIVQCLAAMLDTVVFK

Structures are written as SMILES. The entries are a selection whose mix differs from that of the whole data set. Some tests of the compounds listed are not included; inactive here does not mean inactive elsewhere. Active and inactive are the calls of the source.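 Rule for the calls: active = inhibition at 20 µM, scaled to each plate's controls, above about 33% (limit read from the data); inactive = the rest.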

For the assay, the target named is 26S proteasome non-ATPase regulatory subunit 14 (Homo sapiens) (UniProt O00487). Nature of the assay: inhibition of 26S proteasome subunit Rpn11 – biochemical, fluorescence polarization, uHTS, primary screen (AID 588493). To be noted: human 26S proteasome, Ub4-pepOG fluorescence polarization; at 20 µM; stronger effect = higher value; 20S core pre-blocked with epoxomicin. Background: Fluorescence polarisation rises when a labelled molecule tumbles more slowly, as on binding a larger partner.
For `Cc1cc(C(=O)NCC2(N3CCCCC3)CCCCC2)ccc1[N+](=O)[O-]`, the inhibition is inactive: -0.2%.

For `CCN1CCCC(OC(=O)C2(O)c3ccccc3C=Cc3ccccc32)C1` (stereo unspecified), the inhibition is inactive: -6.4%. As to `O=C(NCC1(N2CCCCC2)CCCCC1)c1cccc(Br)c1`, the inhibition is inactive: 0.3%.

With `COc1ccc(C(=O)NCC2(N(C)C)CCCCC2)cc1`, the inhibition was inactive: 7.8%. To `C=CCN1CCN(CCOC(=O)C(O)(c2ccccc2)c2ccccc2)CC1` belongs inactive: -6.3%; to `O=C(NCC1(N2CCCCC2)CCCCC1)c1cc(F)c(F)cc1Cl`, inactive: 1.6%; to `Cc1ccccc1C(=O)NCC1(N2CCCCC2)CCCCC1`, inactive: -0.6%. The value for `CN(C)C1CCCC1OC(=O)C(O)(c1ccccc1)c1ccccc1` (stereo unspecified) was inactive: 0%. To `CN(C)c1ccc(C(=O)NCC2(N(C)C)CCCCC2)cc1` belongs inactive: -1.3%. In the case of `Cc1ccc(C(=O)NCC2(N3CCCCC3)CCCCC2)cc1`, the inhibition was inactive: 5.3%. The value for `CC(C)N1C(=O)CC2(CCN(CCOC(=O)C(O)(c3ccccc3)c3ccccc3)CC2)C1=O` was inactive: -0.4%; that for `CCN(CC)CC(C)C(C)OC(=O)C(O)(c1ccccc1)c1ccccc1` (stereo unspecified) was inactive: 0.6%; that for `COc1cc(SC)ccc1C(=O)NCC1(N(C)C)CCCCC1` was inactive: 2.3%. Consider `CN1[C@@H]2CC[C@H]1CC(OC(=O)C(O)(c1ccccc1)c1ccccc1)C2` (stereo partly specified), for which the inhibition was inactive: -9.8%. With `O=C(NCC1(N2CCCCC2)CCCCC1)c1cc([N+](=O)[O-])ccc1Cl`, the inhibition is inactive: 15%. The value for `CN(C)c1cccc(C(=O)NCC2(N(C)C)CCCCC2)c1` was inactive: -3.9%; that for `CC(C)Oc1ccc(C(=O)NCC2(N(C)C)CCCCC2)cc1` was inactive: -4.8%. The value for `O=C(OCCN1CCCC1)C(O)(c1ccccc1)c1ccccc1` was inactive: 1.8%. To `COc1ccc(Br)c(C(=O)NCC2(N3CCCCC3)CCCCC2)c1` belongs inactive: 11.5%; to `C=C(C)C#CC(O)(C(=O)OC1CCN(C)CC1)c1ccccc1` (stereo unspecified), inactive: 3.2%. For the compound `O=C(OC1CN2CCC1CC2)C(CO)(c1ccccc1)c1ccccc1` (stereo unspecified), the inhibition is inactive: -3.5%. With `O=C(NCC1(N2CCCCC2)CCCCC1)c1cccc(Cl)c1`, the inhibition was inactive: -0.5%. To `COc1cccc(C(=O)NCC2(N3CCCCC3)CCCCC2)c1` belongs inactive: -3.5%. Consider `COc1ccc(Cl)cc1C(=O)NCC1(N(C)C)CCCCC1`, for which the inhibition is inactive: 4.5%. To `COc1cc(C(=O)NCC2(N(C)C)CCCCC2)c([N+](=O)[O-])cc1OC` belongs inactive: 0.8%; to `CN(C)C1(CNC(=O)c2ccc(Br)cc2)CCCCC1`, inactive: -15.5%.

One may read the inhibition as the relative decrease from the control value, in per cent.
